According to US5928859A, “Detection and biodegradation of explosives” (dated 1999):
Where two headings read alike, the source gives them in different places.

Protein sequences, listed by entry. Tags and fused reporters are not part of them. Residues count along the entry.
UniProt P71278, 2-365 limits assumed: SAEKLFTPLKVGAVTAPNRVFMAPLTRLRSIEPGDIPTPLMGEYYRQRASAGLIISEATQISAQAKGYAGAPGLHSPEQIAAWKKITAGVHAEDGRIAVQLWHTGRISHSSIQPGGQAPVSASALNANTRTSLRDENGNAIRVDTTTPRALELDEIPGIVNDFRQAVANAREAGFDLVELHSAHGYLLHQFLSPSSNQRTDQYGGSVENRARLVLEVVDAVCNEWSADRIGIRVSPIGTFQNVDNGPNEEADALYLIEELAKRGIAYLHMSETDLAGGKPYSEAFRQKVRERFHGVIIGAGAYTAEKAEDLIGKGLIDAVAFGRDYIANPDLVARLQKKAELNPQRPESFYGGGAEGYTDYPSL

How the values were obtained:
[1] = target: T1, PETN reductase (Enterobacter cloacae, UniProt P71278); conditions: for substrate for PETN reductase: purified enzyme and NADPH
[2] = target: T1, PETN reductase; test: Apparent Km of PETN reductase for nitrate ester substrates; conditions: read-out: apparent Km for GTN; 50 mM phosphate buffer, pH 7.0, 0.2 mM NADPH; GTN 5 μM to 200 μM; one standard error

Row | Structure (SMILES) | substrate for PETN reductase [1] | substrate for PETN reductase ([1]; listed as pentaerythritol dinitrate) | liberation of nitrite by PETN reductase ([1]; in the presence of NADPH) | Km [2] [µM]
1 | O=[N+]([O-])OCC(CO)(CO)CO[N+](=O)[O-] | not a substrate | does not appear to be a substrate | – | –
2 | O=[N+]([O-])OCC(CO[N+](=O)[O-])O[N+](=O)[O-] | – | – | liberate nitrite | 22
